Entries after “also recorded” stand apart in the source; their conditions may differ.
Tested on: HIV-1
Assay: Viable cells of HIV-infected MT4 cells (MTT)
Assay type: cell-based, HIV-1 in human MT4 cells
Description: A human T-cell leukemia cell line. MT4 cells, was used in this study. It was maintained in RPMI-1640 medium supplemented with 10% FCS. 100 U/ml of penicillin, and 100 μg/ml of streptomycin at 37° C. in a humidified atmosphere of 5% CO2. Cell cultures were split into fresh medium every 4 days.
HIV-1 virus was propagated in MT4 cells. The cell-free supernatants of HIV-1 infected MT4 cell culture were used as virus stocks and frozen at -80° C. until used. The 50% tissue culture infected dose (TCID50) of the cell-free virus stock was determined by end-point titration with MT4 cells in 96-well microdilution plates.
After 4 h, 100 μl of solvent (10% Triton X-100 and 0.4% HCl isopropanol)was added to cultures to solubilizes formazan. After an overnight incubation, the absorbency of each well was measured using a microplate reader (Bio-Rad, model 450) at 560 nm.
MT4 cells in culture were counted by trypan blue exclusion method. The MT4 cells suspended in a small volume of RPMI-1640 medium without FCS and infected with HIV-1 at 200 TCID50 viruses per 10^6 cells. The mixture of MT4 cells and virus was subsequently incubated at 37° C. in a humidified atmosphere of 5% CO2 for 1 hr to allow virus to adsorbed to cells. […]
After 7-day incubation the viable cells was evaluated by MTT method as described above.

SMILES: O=C(/C=C/c1ccc(O)c(O)c1)OC1CC(OC(=O)/C=C/c2ccc(O)c(O)c2)(C(=O)O)CC(O)C1O (stereo not shown) [Compound A, 1,5-di-O-caffeoylquinic acid]
- amounts of viable cells: increased the amounts of viable cells dose-dependently; also recorded: increase the amounts of viable cells

Source: US6331565A, “Dicaffeoylquinic acid for treating hepatitis B and the diseases associated with retrovirus, and the new caffeoylquinic acid derivatives” (Institute of Radiation Medicine Academy of Military Medical …, priority 1996, dated 2001)
